Experiments:
[1] = Conductometric determination of critical micelle concentration; conditions: conductometry, aqueous solutions at 49 °C
[2] = Micellar catalysis: fenitrothion degradation (Guggenheim method)
CHO-K1 cells = assay: MTT cell viability assay; conditions: read-out: IC50 ± SEM, 24 h exposure, n = 3

SMILES	CMC [1] [mol/L]	log CMC [1]	10^4 k ([2]; c 5 mM, pH 11, 37 °C) [s^−1]	10^4 k ([2]; c 10 mM, pH 10, 37 °C) [s^−1]	10^4 k ([2]; c 10 mM, pH 11, 37 °C) [s^−1]	10^4 k ([2]; c 1 mM, pH 11, 37 °C) [s^−1]	10^4 k ([2]; c 5 mM, pH 10, 37 °C) [s^−1]	IC50 (CHO-K1 cells) [µM]	further results
CCCCCCCCCC[N+](CCO)(CCO)Cc1ccccc1.[Cl-]	0.04836	−1.316	0.35	0.18	0.50				10^4 k ([2]; c 50 mM, pH 10, 37 °C): 3.77 s^−1; 10^4 k ([2]; c 50 mM, pH 11, 37 °C): 12.68 s^−1; 10^4 k ([2]; c 100 mM, pH 10, 37 °C): 3.97 s^−1; 10^4 k ([2]; c 100 mM, pH 11, 37 °C): 12.82 s^−1; 10^4 k ([2]; c 500 mM, pH 10, 37 °C): 2.30 s^−1; 10^4 k ([2]; c 500 mM, pH 11, 37 °C): 6.20 s^−1
CCCCCCCCCCCC[N+](CCO)(CCO)Cc1ccccc1.[Cl-]	0.00871	−2.060	5.93	2.65	8.23	1.80	1.15		10^4 k ([2]; c 50 mM, pH 10, 37 °C): 2.35 s^−1; 10^4 k ([2]; c 50 mM, pH 11, 37 °C): 9.35 s^−1; 10^4 k ([2]; c 100 mM, pH 10, 37 °C): 1.67 s^−1; 10^4 k ([2]; c 100 mM, pH 11, 37 °C): 8.17 s^−1
CCCCCCCCCC[N+](CCO)(CCO)Cc1ccccc1								128	
CCCCCCCCCCCCCCCC[N+](CCO)(CCO)Cc1ccccc1								19.6	
CCCCCCCCCCCCCC[N+](CCO)(CCO)Cc1ccccc1								27.3	
CCCCCCCCCCCCCCCC[N+](CCO)(CCO)Cc1ccccc1.[Cl-]	0.001159	−2.936	49.06	11.56	50.73	12.32	11.14		10^4 k ([2]; c 0.1 mM, pH 10, 37 °C): 1.10 s^−1; 10^4 k ([2]; c 0.1 mM, pH 11, 37 °C): 1.77 s^−1; 10^4 k ([2]; c 0.5 mM, pH 10, 37 °C): 2.30 s^−1; 10^4 k ([2]; c 0.5 mM, pH 11, 37 °C): 6.47 s^−1; 10^4 k ([2]; c 1 mM, pH 10, 37 °C): 3.97 s^−1
CCCCCCCCCCCCCCCCCC[N+](CCO)(CCO)Cc1ccccc1.[Cl-]	0.0004707		23.30			13.95	6.98		10^4 k ([2]; c 0.05 mM, pH 10, 37 °C): 0.28 s^−1; 10^4 k ([2]; c 0.05 mM, pH 11, 37 °C): 0.83 s^−1; 10^4 k ([2]; c 0.1 mM, pH 10, 37 °C): 0.82 s^−1; 10^4 k ([2]; c 0.1 mM, pH 11, 37 °C): 1.87 s^−1; 10^4 k ([2]; c 0.5 mM, pH 10, 37 °C): 2.97 s^−1; 10^4 k ([2]; c 0.5 mM, pH 11, 37 °C): 7.82 s^−1; 10^4 k ([2]; c 1 mM, pH 10, 37 °C): 4.37 s^−1
CCCCCCCCCCCC[N+](CCO)(CCO)Cc1ccccc1								36.1	
CCCCCCCCCCCCCCCCCC[N+](CCO)(CCO)Cc1ccccc1								19.1	
CCCCCCCCCCCCCC[N+](CCO)(CCO)Cc1ccccc1.[Cl-]	0.003003	−2.522	23.62	6.77	24.62	11.28	5.82		10^4 k ([2]; c 0.1 mM, pH 10, 37 °C): 0.50 s^−1; 10^4 k ([2]; c 0.1 mM, pH 11, 37 °C): 1.17 s^−1; 10^4 k ([2]; c 0.5 mM, pH 10, 37 °C): 1.12 s^−1; 10^4 k ([2]; c 0.5 mM, pH 11, 37 °C): 3.80 s^−1; 10^4 k ([2]; c 1 mM, pH 10, 37 °C): 2.02 s^−1
CCCCCCCCCCCC[N+](C)(C)Cc1ccccc1								19.5	

— article PMC8469817, “Synthesis and Decontamination Effect on Chemical and Biological Agents of Benzoxonium-Like Salts” (2021)
